Reference: ChEMBL document CHEMBL1129517, “Pyrazolo[4,3-e]-1,2,4-triazolo[1,5-c]pyrimidine derivatives: potent and selective A(2A) adenosine antagonists” (J Med Chem, 1996)

tested on: Adenosine receptor A2a (Oryctolagus cuniculus)

SMILES | ED50
CCCCn1cc2c(nc(N)n3nc(-c4ccco4)nc23)n1 | 40 nM
CC(C)(C)n1ncc2c1nc(N)n1nc(-c3ccco3)nc21 | > 10000 nM
CCC(C)Cn1ncc2c1nc(N)n1nc(-c3ccco3)nc21 (stereo not given) | 300 nM
Cn1ncc2c1nc(N)n1nc(-c3ccco3)nc21 | 300 nM
Nc1nc2n[nH]cc2c2nc(-c3ccco3)nn12 | 100 nM

More lines, now with the values ahead:

ED50 | SMILES
> 10000 nM | Nc1nc2c(cnn2CCOCc2ccccc2)c2nc(-c3ccco3)nn12
> 1000 nM | Nc1nc2c(cnn2CCCCc2ccccc2)c2nc(-c3ccco3)nn12
> 10000 nM | OCCn1ncc2c1nc(NCc1ccccc1)n1nc(-c3ccco3)nc21
20 nM | Nc1nc2c(cnn2CCCc2ccccc2)c2nc(-c3ccco3)nn12 [SCH-63390]
200 nM | Nc1nc2nn(CCc3ccccc3)cc2c2nc(-c3ccco3)nn12
